# Shown are actives, neighbours in structure and some others; about 0.24% of the full set was active somewhere.
# GLS inhibitor: blocks human kidney-isoform glutaminase activity. O94925. GLS enzymatic activity, qHTS titration. Potency, µM (top dose mostly 45.5 µM), hits mostly inhibitors. 0.21% of 410,000 active
#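 Glutamate formation by hKGA was monitored fluorometrically using coupled glutamate oxidase, HRP and Amplex Red. Substrate was added as 1 mM L-glutamine solution; incubation was 30 min at RT after an initial read.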
# USP2a block: inhibitors of human ubiquitin-specific protease USP2a; O75604; USP2 core, Ub-CHOP2 coupled fluorogenic reporter, 485/531; Potency, µM (highest dose often 38.3 µM), usual class: inhibitors; 0.01% of 330,000 active; AID 463254
#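 Cell-free coupled assay: 10nM USP2 core preincubated 30min RT with compound in Tris-HCl pH 8.0/CaCl2/CHAPS buffer, then 25nM Ub-CHOP2 and 25nM reporter substrate; fluorescence (Ex 485/Em 531) read after 60min RT, normalized to NEM inhibition, concentration-response curves fitted.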
# Eya2 inh: Eya2 (human) phosphatase inhibition | O00167 | recombinant Eya2, OMFP fluorescence dephosphorylation (OMFP is methylfluorescein phosphate) | Potency, µM (highest dose often 76.9 µM), actives largely listed as inhibitors | 0.006% of 330,000 active | AID 488837
#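 Eya2 protein (added as 0.2 uM solution) was preincubated with compound for 10 min at ambient temperature in 50 mM HEPES pH 7.5, 50 mM NaCl, 5 uM MgCl2, 0.05% BSA, 1 mM DTT. OMFP (added at 50 uM) then reacted 10 min; fluorescence read at 485/525 nm.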
# PTHR1 ag: activates the human parathyroid hormone receptor PTHR1; Q03431; HEK293 GP2 PTHR1 cells, GloSensor cAMP luminescence, 1 h; Potency, µM (series often up to 115 µM), hits mostly activators; 0.075% of 410,000 active; AID 743266; note: nearly all actives have a fitted effect of over 55% in size
#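 HEK-293-derived GP2 cells expressing PTHR1 and a GloSensor cAMP reporter, 3,000/well, plated overnight, given luciferin plus IBMX (each 0.5 mM as added) for 1 h at 37 °C, then compound for 1 h at 37 °C. Luminescence was read after 15 min at room temperature.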
# TSG101-PTAP inh: blocks PTAP/TSG101 interaction to inhibit HIV-1 budding; Q99816; Fluorescence polarization, FITC-PTAP peptide / Tsg101 binding; Potency, µM (top dose mostly 115 µM), most hits filed as inhibitors; 340,000 tested, under 10 active; AID 493005; active = well fitted inhibition curve with a large enough effect in the main read-out, with a control signal flat, not every such curve was filed as active; inconclusive = small, poorly fitted or top-dose-only effect, or effect the other way, or a change in a side signal; inactive = no such curve, though single readings can be large or run the other way
#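 FP read-out: FITC-PTAP peptide, 50 nM final, binding Tsg101 binding domain, 10 uM final; 20 min, r.t.; 10 mM HEPES pH 7.5, 0.15 M NaCl, 0.01% Tween 20, 3 mM EDTA, 0.1 mM TCEP.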
# miR-21 reporter: raises the signal of a miR-21 reporter | HeLa miR-21 FLuc reporter, luciferase, 48 h | 340,000 tested, under 10 active | Potency, µM (titrated, usually from 38.3 µM); active = well fitted rising curve with a large enough effect; inconclusive = small, poorly fitted or top-dose-only effect; inactive = no such curve, though single readings can be large or run the other way;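 further: miR-21 action dims this reporter so a rising signal means less miR-21 action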
#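 Luminescence from a firefly luciferase reporter carrying a miR-21 binding site downstream, stably expressed under a CMV promoter in HeLa cells that make miR-21 endogenously, reports miRNA modulation after 48 h compound exposure up to approximately 40uM final.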
# Numbers stand for hits; – = inactive; ? = inconclusive; · = no result. Unless noted, calls come from the whole dose curve; as a rule, active = well fitted curve in the direction sought with a large enough effect; inconclusive = small, poorly fitted or top-dose-only effect, or another doubt; inactive = no such curve, though single readings can be large; an effect the other way counts as inactive or inconclusive.
SMILES,GLS inhibitor,USP2a block,Eya2 inh,PTHR1 ag,TSG101-PTAP inh,miR-21 reporter
CCN(CC)c1ccc(-c2nc(-c3ccccc3C)no2)cc1[N+](=O)[O-],–,·,·,–,·,–
CN(C)Cc1cc(O)c(CN(C)C)cc1O,14.1µM,–,–,–,–,–
CN(C)Cc1cc(C(C)(C)C)cc(C(C)(C)C)c1O,–,–,–,–,–,–
COc1ccc(-c2cc(C(=O)OCC(=O)c3cccc([N+](=O)[O-])c3)c3cc(C)ccc3n2)cc1,–,–,–,–,–,–
Cc1cc(C(=O)OCC(=O)c2cccc([N+](=O)[O-])c2)c2cccc(C)c2n1,–,11.2µM,?,–,–,–
CCCC(=O)O[C@]1(C(=O)COC(=O)CC)[C@@H](C)C[C@H]2[C@@H]3CCC4=CC(=O)C=C[C@@]4(C)[C@@]3(F)[C@H](O)C[C@@]21C,–,·,·,·,·,·
Cc1ccc(-c2cc(C(=O)N3CCN(c4ccccc4O)CC3)c3ccccc3n2)cc1,7.08µM,–,–,–,–,·
CCOc1c(Cl)cc(C(=O)N(Cc2ccc(N(C)C)cc2)Cc2ccco2)cc1Cl,–,·,·,–,·,–
COc1ccc(N2Cc3cccc(C(=O)Nc4cc(C)cc(C)c4)c3C2=O)cc1,–,·,·,–,·,–
COc1ccc(N2Cc3cccc(C(=O)O)c3C2=O)cc1,15.8µM,–,–,–,–,–
CCOC(=O)c1ccc(NC(=O)CCc2c(C)nc3c(c(C)nn3-c3ccccc3)c2C)cc1,–,·,·,–,·,–
CC1(C)Cc2c(cnn2-c2ccc(F)cc2)C(NC(=O)C2=NNC(=O)CC2)C1 (configuration not stated),15.8µM,–,–,–,–,–
CC(C)CNC(=O)COC(=O)c1c2c(nc3ccccc13)/C(=C\c1cccs1)CC2,–,·,·,–,–,·
CN(CCC#N)C(=O)COC(=O)c1c2c(nc3ccccc13)/C(=C/c1ccco1)CC2,6.31µM,–,–,–,–,–
Oc1ccccc1C1Nc2cccc3cccc(c23)N1,–,–,–,–,–,–
O=[N+]([O-])c1ccccc1C1Nc2cccc3cccc(c23)N1,8.91µM,–,–,–,–,–
CC(C)(C)OC(=O)N1CCC(c2c(C(=O)Nc3ccc4c(c3)OCCO4)cnn2-c2ccccc2)CC1,–,·,·,–,·,–
COc1cccc(-n2c(SCC(=O)NCCC3=CCCCC3)nc3n[nH]c(C)c3c2=N)c1,20µM,–,–,–,–,–
Nc1ccc(N)c(C(=O)O)c1,5.62µM,?,–,–,–,–
CCN(Cc1ccccc1)C(=O)Cn1c(=O)n(-c2ccccc2)c(=O)c2c1c1cc(C)ccc1n2C,–,·,·,–,·,–
CC(C(=O)NC1C(=O)N2C(C(=O)O)=C(CSc3nnnn3C)CSC12)n1cc(Br)cn1 (configuration not stated),–,–,–,–,–,–
CC(=O)OCC1=C(C(=O)O)N2C(=O)C(NC(=O)c3ccc(F)cc3)C2SC1 (configuration not stated),–,–,–,?,–,–
Cn1nnnc1SCC1=C(C(=O)O)N2C(=O)[C@@H](NC(=O)[C@H](O)c3ccccc3)[C@H]2SC1,10µM,–,–,–,–,–
Cn1nnnc1SCC1=C(C(=O)O)N2C(=O)C(NC(=O)C3CC3c3ccccc3)C2SC1 (configuration not stated),–,–,–,–,–,–
CC(=O)OCC1=C(C(=O)O)N2C(=O)[C@@H](NC(=O)CSc3ccncc3)[C@H]2SC1,17.8µM,–,–,–,–,·
SMILES,GLS inhibitor,USP2a block,Eya2 inh,PTHR1 ag,TSG101-PTAP inh,miR-21 reporter
Cn1nnnc1SCC1=C(C(=O)O)N2C(=O)[C@@H](NC(=O)[C@H](OC=O)c3ccccc3)[C@H]2SC1,22.4µM,·,·,·,·,·
CCCC(=O)Nc1nc2c(s1)CC(C(C)(C)C)CC2 (configuration not stated),–,·,·,–,·,–
CCC(C)S(=O)(=O)c1oc(-c2cccs2)nc1S(=O)(=O)c1ccccc1 (configuration not stated),–,·,·,–,·,?
CCCCC(CCC(=O)Nc1ccn(-c2ccccc2)n1)C(=O)O (configuration not stated),–,–,39.8µM,–,–,–
COc1ccc(N2CCN(C(=O)C3CCN(S(=O)(=O)c4cccc5nonc45)CC3)CC2)cc1,–,·,·,–,·,–
Cc1cccc(N2CCN(C(=O)c3cccn4c(=O)c5cc(Cl)ccc5nc34)CC2C)c1 (configuration not stated),–,·,·,–,·,–
CN(C(=O)CC(=O)Nc1ccc2nc3n(c(=O)c2c1)CCCCC3)c1ccccc1F,–,·,·,–,·,–
C#CCOCCOCCOCCNc1nc(N2CCN(C(=O)CCCCCCCCCCNC(=O)[C@H](CO)n3cc(CCCCCN)nn3)CC2)nc(N2CCN(C(=O)CCCCCCCCCCNC(=O)[C@H](CCCN=C(N)N)n3cc(C[C@@H](C)CC)nn3)CC2)n1,·,?,–,·,·,·
C#CCOCCOCCOCCNc1nc(N2CCN(C(=O)CCCCCCCCCCNC(=O)[C@H](CCCCN)n3cc(C)nn3)CC2)nc(N2CCN(C(=O)CCCCCCCCCCNC(=O)[C@H](CCCN=C(N)N)n3cc(C[C@@H](C)CC)nn3)CC2)n1,?,11.2µM,22.4µM,–,–,·
C#CCOCCOCCOCCNc1nc(N2CCN(C(=O)CCCCCCCCCCNC(=O)[C@H](CCCCN)n3cc(C[C@@H](C)CC)nn3)CC2)nc(N2CCN(C(=O)CCCCCCCCCCNC(=O)[C@H](CCCN=C(N)N)n3cc(C[C@@H](C)CC)nn3)CC2)n1,?,10µM,?,–,–,·
C#CCOCCOCCOCCNc1nc(N2CCN(C(=O)CCCCCCCCCCNC(=O)[C@H](CCCCN)n3cc(C[C@@H](C)CC)nn3)CC2)nc(N2CCN(C(=O)CCCCCCCCCCNC(=O)[C@@H]([C@H](C)O)n3cc(C)nn3)CC2)n1,?,–,–,–,–,·
Nc1nc(N)c2c(n1)CN(Cc1ccc(Cl)cc1)C2,11.2µM,·,·,–,·,·
Cc1cc2c(cc1S(=O)(=O)NCc1ccc(F)cc1)OCCN2C,–,·,·,–,·,–
O=C1/C(=C/c2ccc(O)c(O)c2)Oc2cc(O)ccc21,8.91µM,–,–,–,–,–
COc1cc(/C=C2\Oc3cc(O)ccc3C2=O)ccc1O,–,?,–,–,?,–
CCOc1ccccc1C(=O)NC1CC2CCCC(C1)N2C1CC1 (configuration not stated),–,10µM,–,–,–,–
Cc1cccc(C)c1NC(=O)C(=O)NCC(c1ccc2c(c1)OCO2)N1CCOCC1 (configuration not stated),–,·,·,–,·,–

# High-throughput results from PubChem BioAssay.
